Measured values published in ChEMBL document CHEMBL4837260, “Structure-Guided Design of a Small-Molecule Activator of Sirtuin-3 that Modulates Autophagy in Triple Negative Breast Cancer” (J Med Chem, 2021).
Active and inactive are the calls of the source. The calls are words filed in the database; no cut-off is given here.

The chains behind the UniProt entries cited, without tags or fusion partners. Where a name states a change or a piece, a line headed by the entry shows the natural chain unless it says otherwise.
UniProt Q9NXA8: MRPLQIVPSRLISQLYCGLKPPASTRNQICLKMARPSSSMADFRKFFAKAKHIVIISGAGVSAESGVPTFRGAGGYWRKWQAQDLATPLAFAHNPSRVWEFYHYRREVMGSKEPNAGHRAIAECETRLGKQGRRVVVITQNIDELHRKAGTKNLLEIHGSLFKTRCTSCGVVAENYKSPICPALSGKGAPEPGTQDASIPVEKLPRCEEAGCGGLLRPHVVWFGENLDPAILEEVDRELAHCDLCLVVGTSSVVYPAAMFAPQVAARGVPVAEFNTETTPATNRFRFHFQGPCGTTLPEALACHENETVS

Columns and labels:
[1] = molecular target: NAD-dependent protein deacylase sirtuin-5, mitochondrial (Homo sapiens) (UniProt Q9NXA8); assay: Activation of recombinant human SIRT5 assessed as deacetylation activity using FLUOR DE LYS-succinyl green substrate at 0 to 100 uM by fluorescent assay; settings: dose 0-100 µM
[2] = molecular target: NAD-dependent protein deacylase sirtuin-5, mitochondrial (Homo sapiens) (UniProt Q9NXA8); assay: Activation of SIRT5 in human MDA-MB-231 cells assessed as decrease in succin-ylation of mitochondrial proteins up to 10 uM incubated for 48 hrs by Western blot analysis; assay type: cell-based; settings: dose microM <=10, time 48.0 hrs
[3] = molecular target: T1, NAD-dependent protein deacetylase sirtuin-2 (Homo sapiens) (UniProt Q8IXJ6); assay: Binding affinity to human SIRT2 human MDA-MB-231 cells assessed as increase in thermal stability heated for 3 mins up to 1 degC at 10 uM by cellular thermal shift assay; assay type: tissue-based
T1 sequence (whole entry): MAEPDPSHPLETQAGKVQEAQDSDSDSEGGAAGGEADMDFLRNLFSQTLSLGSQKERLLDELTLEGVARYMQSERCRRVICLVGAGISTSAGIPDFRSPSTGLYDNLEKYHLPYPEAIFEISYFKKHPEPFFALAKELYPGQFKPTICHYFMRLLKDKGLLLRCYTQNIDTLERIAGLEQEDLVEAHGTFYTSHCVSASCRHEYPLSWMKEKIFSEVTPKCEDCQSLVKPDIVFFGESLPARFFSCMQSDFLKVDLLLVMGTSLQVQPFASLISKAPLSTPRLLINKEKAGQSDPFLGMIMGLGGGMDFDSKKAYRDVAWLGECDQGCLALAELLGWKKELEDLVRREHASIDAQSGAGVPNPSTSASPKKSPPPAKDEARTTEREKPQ

[4] = molecular target: T2, NAD-dependent protein deacetylase sirtuin-1 (Homo sapiens) (UniProt Q96EB6); assay: Binding affinity to human SIRT1 human MDA-MB-231 cells assessed as increase in thermal stability heated for 3 mins up to 1 degC at 10 uM by cellular thermal shift assay; assay type: tissue-based
T2 sequence (whole entry): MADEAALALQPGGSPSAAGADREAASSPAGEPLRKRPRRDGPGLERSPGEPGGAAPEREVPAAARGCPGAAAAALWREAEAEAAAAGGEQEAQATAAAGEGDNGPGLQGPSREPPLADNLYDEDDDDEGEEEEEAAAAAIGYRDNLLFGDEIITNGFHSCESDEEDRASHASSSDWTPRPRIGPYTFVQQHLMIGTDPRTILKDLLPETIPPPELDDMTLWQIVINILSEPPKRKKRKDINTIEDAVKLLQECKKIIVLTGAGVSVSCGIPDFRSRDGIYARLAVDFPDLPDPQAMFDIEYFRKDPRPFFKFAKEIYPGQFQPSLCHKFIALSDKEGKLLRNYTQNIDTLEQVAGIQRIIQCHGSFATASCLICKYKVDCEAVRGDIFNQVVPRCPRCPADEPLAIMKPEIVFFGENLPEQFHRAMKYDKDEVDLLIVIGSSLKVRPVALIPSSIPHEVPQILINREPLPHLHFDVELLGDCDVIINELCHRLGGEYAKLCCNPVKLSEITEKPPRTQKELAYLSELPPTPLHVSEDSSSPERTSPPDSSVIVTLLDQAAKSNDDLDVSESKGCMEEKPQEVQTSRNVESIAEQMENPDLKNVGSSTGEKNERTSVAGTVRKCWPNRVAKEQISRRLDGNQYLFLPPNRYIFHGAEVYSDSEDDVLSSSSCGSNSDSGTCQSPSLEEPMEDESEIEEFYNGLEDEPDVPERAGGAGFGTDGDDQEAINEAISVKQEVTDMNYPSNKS

[5] = molecular target: T2, NAD-dependent protein deacetylase sirtuin-1 (Homo sapiens); assay: Activation of recombinant human SIRT1 assessed as deacetylation activity using Arg-His-Lys-Lys(Ac) peptide substrate at 0 to 100 uM by fluorescent assay; settings: dose 0-100 µM
[6] = molecular target: T1, NAD-dependent protein deacetylase sirtuin-2 (Homo sapiens); assay: Activation of recombinant human SIRT2 assessed as deacetylation activity using Gln-Pro-Lys-Lys(Ac) peptide substrate at 0 to 100 uM by fluorescent assay; settings: dose 0-100 µM
[7] = molecular target: NAD-dependent protein deacylase sirtuin-5, mitochondrial (Homo sapiens) (UniProt Q9NXA8); assay: Binding affinity to human SIRT5 human MDA-MB-231 cells assessed as increase in thermal stability heated for 3 mins up to 1 degC at 10 uM by cellular thermal shift assay; assay type: tissue-based

- Activity [1]: inactive
- Activity [2]: inactive
- Activity [3]: inactive
- Activity [4]: inactive
- Activity [5]: inactive
- Activity [6]: inactive
- Activity [7]: inactive
Structure (SMILES): CCCCc1oc2ccccc2c1C(=O)c1cc(I)c(OCCCN2CCCC2)c(I)c1
